Source: paper PMC10141580, “Cyclic Dichalcogenides Extend the Reach of Bioreductive Prodrugs to Harness Thiol/Disulfide Oxidoreductases: Applications to seco-Duocarmycins Targeting the Thioredoxin System” (ACS Central Science, 2023)

System: panel of 140 standard cancer cell lines
Experiment: ProliFiler-140 cancer cell line screen (CellTiterGlo, 72 h)
Type: cell-based
Conditions: listed as Dox
Protocol: Incubations were performed for 72 h before automated viability readout with CellTiterGlo (Figure 8).
End of Figure S11 (part 5 of 5): ProliFiler-140 cancer cell line screening for cytotoxicity of the prodrugs.
8-data-point dose response curves from CellTiter-Glo® viability readout.
ProliFiler-140 cell line panel part V

COc1cccc2c1C(=O)c1c(O)c3c(c(O)c1C2=O)C[C@@](O)(C(=O)CO)C[C@@H]3O[C@H]1C[C@H](N)[C@H](O)[C@H](C)O1 [doxorubicin, reference compound]
IC50 (BEN (Lung)): 4070 nM | IC50 (Colo 205 (Colon)): 148 nM | IC50 (MCF-7 (Breast)): 231 nM
